Reference: patent publication US20240139185A1, “COMPOUNDS THAT PARTICIPATE IN COOPERATIVE BINDING AND USES THEREOF” (Revolution Medicines, Inc., priority 2018, published 2024)

Key:
[1] = test system: pERK in H358 cells; test: pERK inhibition in H358 cells; settings: read-out: Cellular pERK inhibition, 4 hours treatment
Procedure, shortened: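 Human lung cancer H358 cells in RPMI/10% FBS were exposed to compound or DMSO for 4 h. Fixed and permeabilized cells were stained overnight at 4 C with anti-phospho-ERK1/2 (Thr202/Tyr204). Near-infrared imaging read the pERK signal at 800 nm, with DRAQ5 at 700 nm.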

[2] = biological target: BRAF-GTP-KRAS-G12C complex (Homo sapiens, UniProt P01116+P62937, G12C); test: KRAS-BRAF complex disruption through competition with CYPA-compound by TR-FRET; settings: read-out: BRAF-GTP-KRAS-G12C Disruption; biochemical BRAF-KRAS G12C-GTP disruption assay EC50, with CYPA
Procedure, shortened: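 His6-KRAS G12C-GTP (1-169, 50 nM) with tagless CypA (1-165, 500 nM) was incubated with compound for 3 h at room temperature in pH 7.3 Hepes/NaCl/MgCl2 buffer containing GST-BRAF RBD. Anti-His Eu (10 nM) and anti-GST APC (50 nM) were then added for 1.5 h, and the 665/615 nm TR-FRET ratio was read. EC50 from 4-parameter fit; for specificity, wild-type KRAS replaced G12C, and CypA was omitted to test presenter dependence.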

[3] = biological target: cyclophilin A (CYPA) (Homo sapiens, UniProt P62937); test: CYPA-compound binary complex formation by SPR; settings: read-out: CYPA Binding Affinity
Procedure, shortened: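 CypA-Avi captured on a Biotin CAPture chip (4 μg/ml), reference flow cell subtracted. Compounds injected as 10-point 2-fold dilutions from 50 μM in HBS-P+ pH7.4 with 2% DMSO; 60 s association and 60 s dissociation, solvent-corrected. Affinity obtained by steady-state fitting.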

Row | SMILES | pIC50 [1] | pEC50 [2] | pKd [3]
1 | CC(C)[C@@H](C(=O)N[C@H]1Cc2cc(O)cc(c2)-c2ccc3c4c(n(c3c2)C[C@H](C)COC(=O)[C@@H]2CCCN(N2)C1=O)CCCC4C#N)N(C)C(=O)C1CN(C(=O)CCl)C1 (stereo partly drawn) | 5.00 to 6.00 | > 6.30 | 4.82 to 5.30
2 | C=CC(=O)N1CC[C@H](C(=O)N(C)[C@H](C(=O)N[C@H]2Cc3cc(O)cc(c3)-c3ccc4c(C(C)(C)CC#N)cn(c4c3)CC(C)(C)COC(=O)[C@@H]3CCCN(N3)C2=O)C(C)C)C1 | 5.00 to 6.00 | 5.30 to 6.30 | 4.82 to 5.30
3 | CC(C)[C@@H](C(=O)N[C@H]1Cc2cc(O)cc(c2)-c2ccc3c(-c4cc(F)ccc4C#N)cn(c3c2)CC(C)(C)COC(=O)[C@@H]2CCCN(N2)C1=O)N(C)C(=O)C1CN(C(=O)CCl)C1 | > 6.00 | > 6.30 | 4.82 to 5.30
4 | CC(C)[C@H](C(=O)N[C@H]1Cc2cc(O)cc(c2)-c2ccc3c(C(C)(C)C#N)cn(c3c2)CC(C)(C)COC(=O)[C@@H]2CCCN(N2)C1=O)N(C)C(=O)C1CN(C(=O)CCl)C1 | < 5.00 | 5.30 to 6.30 | < 4.82
5 | CC#CC(=O)N1CCC[C@H]1C(=O)N(C)[C@H](C(=O)N[C@H]1Cc2cc(O)cc(c2)-c2ccc3c(C(F)F)nn(c3c2)C[C@H](C)COC(=O)[C@@H]2CCCN(N2)C1=O)C(C)C | < 5.00 | < 5.30 | > 5.30
6 | CC(C)[C@@H](C(=O)N[C@H]1Cc2cc(O)cc(c2)-c2ccc3c(-c4cccc5ncsc45)cn(c3c2)CC(C)(C)COC(=O)[C@@H]2CCCN(N2)C1=O)N(C)C(=O)C1CN(C(=O)[C@@H](C)Cl)C1 | < 5.00 | < 5.30 | 4.82 to 5.30
7 | CC(C)[C@@H](C(=O)N[C@H]1Cc2cc(O)cc(c2)-c2ccc3c(C(C)(C)C#N)cn(c3c2)CC(C)(C)COC(=O)[C@@H]2CCCN(N2)C1=O)N1CCC2(CCCN(C(=O)CCl)C2)C1=O (single isomer, unassigned) | < 5.00 | < 5.30 | > 5.30
8 | CC#CC(=O)N1CCC2(CC1)CCN([C@H](C(=O)N[C@H]1Cc3cc(O)cc(c3)-c3ccc4c(C(C)(C)C#N)cn(c4c3)CC(C)(C)COC(=O)[C@@H]3CCCN(N3)C1=O)C(C)C)C2=O | < 5.00 | < 5.30 | > 5.30
9 | C=CC(=O)N1CC2(CCN([C@H](C(=O)N[C@H]3Cc4cc(O)cc(c4)-c4ccc5c(c4)c(cn5CC#N)CC(C)COC(=O)[C@@H]4CCCN(N4)C3=O)C(C)C)C2=O)C1 (stereo partly drawn) | < 5.00 | 5.30 to 6.30 | > 5.30
10 | C[C@@H](Cl)C(=O)N1CC(C(=O)N(C)[C@H](C(=O)N[C@H]2Cc3cc(O)cc(c3)-c3ccc4c(C(C)(C)C#N)cn(c4c3)CC(C)(C)COC(=O)[C@@H]3CCCN(N3)C2=O)c2ccccc2)C1 | < 5.00 | < 5.30 | < 4.82
11 | COCC(Cl)C(=O)N1CC(C(=O)N(C)[C@H](C(=O)N[C@H]2Cc3cc(O)cc(c3)-c3ccc4c(C(C)(C)C#N)cn(c4c3)CC(C)(C)COC(=O)[C@@H]3CCCN(N3)C2=O)C(C)C)C1 (stereo partly drawn) | 5.00 to 6.00 | 5.30 to 6.30 | 4.82 to 5.30
12 | CC(C)[C@@H](C(=O)N[C@H]1Cc2cc(O)cc(c2)-c2ccc3c(C(C)(C)C#N)cn(c3c2)CC(C)(C)COC(=O)[C@@H]2CCCN(N2)C1=O)N(C)C(=O)C1CCN(C(=O)CCl)CC1 | > 6.00 | > 6.30 | 4.82 to 5.30
13 | C=CC(=O)N1CC[C@H](C(=O)N(C)[C@H](C(=O)N[C@H]2Cc3cc(O)cc(c3)-c3ccc4c(c3)N(CC(C)(C)COC(=O)[C@@H]3CCCN(N3)C2=O)CC42COc3ccccc32)C(C)C)C1 (single isomer, unassigned) [353] | > 6.00 | > 6.30 | 4.82 to 5.30
14 | CC(Cl)C(=O)N1CC(C(=O)N(C)[C@H](C(=O)N[C@H]2Cc3cc(O)cc(c3)-c3ccc4c(C5CCC5)cn(c4c3)CC(C)(C)COC(=O)[C@@H]3CCCN(N3)C2=O)C(C)C)C1 (stereo partly drawn) | < 5.00 | 5.30 to 6.30 | < 4.82
15 | C=CC(=O)N1CCN([C@H](C(=O)N[C@H]2Cc3cc(O)cc(c3)-c3ccc4ncn(c4c3)CCCOC(=O)[C@@H]3CCCN(N3)C2=O)C(C)C)C1=O | < 5.00 | 5.30 to 6.30 | > 5.30
16 | CC1COC(=O)[C@@H]2CCCN(N2)C(=O)[C@@H](NC(=O)[C@H](C(C)C)N(C)C(=O)C2CN(C(=O)CCl)C2)Cc2cc(O)cc(c2)-c2ccc3c(c2)c(cn3CC#N)C1 (stereo partly drawn) | 5.00 to 6.00 | > 6.30 | > 5.30
17 | CC#CC(=O)N1CC[C@H]1C(=O)N(C)[C@H](C(=O)N[C@H]1Cc2cc(O)cc(c2)-c2ccc3nc(C)n(c3c2)CC(C)(C)COC(=O)[C@@H]2CCCN(N2)C1=O)C(C)C | < 5.00 | < 5.30 | > 5.30

pEC50, pIC50, pKd: −log10 of the molar value.
